The test concerns H9 hESC. Kind of test: Beating hEB assay (contracting hEB after forced aggregation cardiac differentiation). The test is classed as cell-based, human. The note with it: supplement in d4 onwards medium. The source says: The cardiac differentiation protocol was divided into four distinct phases for optimization (FIG. 3A): phase 1: uniform undifferentiated growth; phase 2: hEB formation/mesoderm induction; phase 3: hEB cardiac specification; phase 4: contracting cardiomyocyte development. A simple beating hEB assay was used to sequentially assess improvements in cardiac differentiation in each of these four phases by counting the number of hEB contracting after nine days of differentiation, a time point that was identified as the day of maximum percentage contraction in the enhanced ‘prototype’ version of the protocol (FIG. 1B). […] For each variable tested, the bell-curve distribution of dose-response was determined. […]
For forced aggregation hEB differentiations, confluent hESC or hiPSC which had been grown on a commercially available extracellular matrix, Geltrex (Invitrogen) as monolayers for 3 to 13 passages were passaged with TrypLE Select and seeded at 2.5×10^6 per T25 flask. […] Media was changed on d7 and every 3 days afterwards. hEB were visually assessed for contraction on d9 using a Nikon Eclipse Ti inverted tissue culture microscope with a TOKAI-HIT heated stage (Nikon). […]
One single replicate consists of one 96-well plate. […] Total number of hEB assessed in this work exceeds 80,000. […]

The text below walks through data of US20130136721A1, “Compositions and Methods of Generating a Differentiated Mesodermal Cell” (THE JOHNS HOPKINS UNIVERSITY, priority 2010, published 2013).

Regarding HSA: human serum albumin, the “effect on cardiac differentiation, phase 4 medium” value is given as “not required for the d4 onwards phase”.
